Source: PubChem BioAssay (EPA / NIEHS)
The list shows a part of the results, in another mix than the full data. Active and inactive are the calls of the source. How the source made its calls: active means hit-call score of the fitted dose curve at least 0.9, where 1 is the maximum; inactive means score below 0.9.

Chains of the proteins cited; added tags and fusions are not shown.
UniProt P10415, whole entry: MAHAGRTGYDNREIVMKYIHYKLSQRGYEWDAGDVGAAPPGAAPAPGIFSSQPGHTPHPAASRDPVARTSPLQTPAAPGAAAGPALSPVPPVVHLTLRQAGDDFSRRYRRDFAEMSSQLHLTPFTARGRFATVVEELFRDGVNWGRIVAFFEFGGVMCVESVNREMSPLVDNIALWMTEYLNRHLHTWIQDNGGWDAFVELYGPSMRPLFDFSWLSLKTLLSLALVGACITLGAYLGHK
UniProt P42574, whole entry: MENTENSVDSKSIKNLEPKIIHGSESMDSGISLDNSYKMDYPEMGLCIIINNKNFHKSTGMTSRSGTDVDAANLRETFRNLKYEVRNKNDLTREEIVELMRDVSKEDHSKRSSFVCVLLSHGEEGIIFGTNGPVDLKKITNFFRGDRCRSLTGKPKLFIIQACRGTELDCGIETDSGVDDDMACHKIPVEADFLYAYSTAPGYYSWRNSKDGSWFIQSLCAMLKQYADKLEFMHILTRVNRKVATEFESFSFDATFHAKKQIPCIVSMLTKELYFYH
UniProt P33261, whole entry: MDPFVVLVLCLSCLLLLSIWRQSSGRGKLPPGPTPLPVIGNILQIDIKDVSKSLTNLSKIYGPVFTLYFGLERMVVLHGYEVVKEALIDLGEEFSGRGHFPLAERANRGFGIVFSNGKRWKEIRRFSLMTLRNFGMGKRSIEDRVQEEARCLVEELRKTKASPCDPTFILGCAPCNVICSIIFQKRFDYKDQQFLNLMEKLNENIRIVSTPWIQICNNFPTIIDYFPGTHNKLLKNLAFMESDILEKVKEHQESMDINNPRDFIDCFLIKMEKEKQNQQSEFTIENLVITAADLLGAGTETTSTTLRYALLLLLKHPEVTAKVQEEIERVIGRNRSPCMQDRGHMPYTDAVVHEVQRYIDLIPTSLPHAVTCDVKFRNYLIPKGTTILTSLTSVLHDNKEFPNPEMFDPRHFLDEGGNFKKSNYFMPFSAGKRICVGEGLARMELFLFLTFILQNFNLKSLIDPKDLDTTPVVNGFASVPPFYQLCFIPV

How the values were obtained:
Settings in all cases: actives raise or lower the signal; mRNA level, 48 h
[1] = read-out: Apoptosis regulator Bcl-2 (Homo sapiens) (UniProt P10415); assay: LTEA_HepaRG_BCL2: Life Technologies and Expression Analysis (LTEA) Assay for Bcl-2 gene using HepaRG (AID 2283475)
Summary of the method: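 qRT-PCR of BCL2 transcript, normalized to three housekeeping genes (ACTB, GAPDH, POLR2A), after 48 h chemical exposure of HepaRG cells; concentrations top 100 uM with half-log dilutions, 0.5% DMSO vehicle, duplicates; changes up or down fitted relative to vehicle.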

[2] = read-out: Bcl-2 (BID) gene, BID (gene 637); assay: LTEA_HepaRG_BID: Life Technologies and Expression Analysis (LTEA) Assay for Bcl-2 (BID) gene using HepaRG (AID 2283476)
Summary of the method: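 Duplicate 48 h treatments of HepaRG cells in serum-free induction medium spanned 100 uM downward in half-log steps, 0.5% DMSO. Transcript change quantified by qRT-PCR against three housekeeping genes, fitted up or down versus DMSO.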

Caspase-3 (Homo sapiens) = Caspase-3 (Homo sapiens) (UniProt P42574); assay: LTEA_HepaRG_CASP3: Life Technologies and Expression Analysis (LTEA) Assay for cysteine-aspartic acid protease (CASP3) using HepaRG (AID 2283477)
Summary of the method: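 HepaRG, 48 h exposure, 8 conc. (top 100 uM, half-log steps, duplicate), 0.5% DMSO vehicle; qRT-PCR of CASP3 transcript, housekeeping-normalised (ACTB/GAPDH/POLR2A); bidirectional curve fit vs DMSO baseline.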

[3] = read-out: Cytochrome P450 (CYP24A1), CYP24A1 (gene 1591); assay: LTEA_HepaRG_CYP24A1: Life Technologies and Expression Analysis (LTEA) Assay for Cytochrome P450 (CYP24A1) using HepaRG (AID 2283478)
Experimental: LTEA_HepaRG is a cell based, multiplexed-readout assay that uses HepaRG, a human liver cell line, with measurements taken at 48 hours after chemical dosing on a 96-well plate.LTEA_HepaRG_CYP24A1 is one of 102 assay component(s) measured in the LTEA HepaRG cell culture assay. It is a marker of NR mediated metabolism.Data from the assay component LTEA_HepaRG_CYP24A1 was analyzed into 1 endpoint. This assay endpoint, LTEA_HepaRG_CYP24A1, was analyzed with bidirectional fitting relative to DMSO as the negative control and baseline of activity. Using a type of inducible reporter, measures of mRNA induction for gain or loss-of-signal activity can be used to understand regulation of transcription factor activity. To generalize the intended target to other relatable targets, this assay endpoint is annotated to the cyp intended target family, where the subfamily is xenobiotic metabolism.
A total of 1060 chemcials from the ToxCast library were tested in eight-point concentration-response experiments. Cell culture and cytotoxicity assays were conducted at Thermo Fisher Scientific's Custom Services facility (Madison, WI). […] Fluidigm's 96.96 Dynamic ArrayTM (Fluidigm, Amsterdam, the Netherlands) technology was used for gene expression analyses by quantitative reverse transcription polymerase chain reaction (qRT-PCR, performed by Quintiles/Expression Analysis, Durham, NC)89. […]

[4] = read-out: Cytochrome P450 (CYP1A2), CYP1A2 (gene 1544); assay: LTEA_HepaRG_CYP1A2: Life Technologies and Expression Analysis (LTEA) Assay for Cytochrome P450 (CYP1A2) using HepaRG (AID 2283479)
Summary of the method: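 HepaRG, 48 h exposure, top 100 uM, half-log 8-pt, 0.5% DMSO vehicle, duplicates. Readout: TaqMan qRT-PCR of CYP1A2 mRNA, housekeeping-normalized (ACTB/GAPDH/POLR2A). Gain/loss fit relative to DMSO baseline.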

[5] = read-out: cysteine-aspartic acid protease (CASP8), CASP8 (gene 841); assay: LTEA_HepaRG_CASP8: Life Technologies and Expression Analysis (LTEA) Assay for cysteine-aspartic acid protease (CASP8) using HepaRG (AID 2283480)
Summary of the method: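 qRT-PCR readout of CASP8 mRNA, normalized to three housekeeping genes, after 48 h chemical exposure of HepaRG cells; 8-point half-log series, top 100 uM, 0.5% DMSO vehicle. Bidirectional curve fitting against DMSO baseline.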

[6] = read-out: Cytochrome P450 (CYP2B6), CYP2B6 (gene 1555); assay: LTEA_HepaRG_CYP2B6: Life Technologies and Expression Analysis (LTEA) Assay for Cytochrome P450 (CYP2B6) using HepaRG (AID 2283481)
Summary of the method: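 Read-out is CYP2B6 mRNA by TaqMan qRT-PCR, normalized to three housekeeping genes and fitted bidirectionally against 0.5% DMSO baseline. Human HepaRG cells received test chemicals for 48 h, top concentration 100 uM, half-log dilutions.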

[7] = read-out: Cytochrome P450 2C19 (Homo sapiens) (UniProt P33261); assay: LTEA_HepaRG_CYP2C19: Life Technologies and Expression Analysis (LTEA) Assay for CYP2C19 using HepaRG (AID 2283482)
Summary of the method: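 HepaRG, 48 h chemical exposure, 8-pt half-log series from 100 uM in 0.5% DMSO, duplicates. Readout: CYP2C19 mRNA by TaqMan qRT-PCR, housekeeping-normalized. Bidirectional fit vs DMSO baseline; phenobarbital 1mM as induction control.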

CYP2C8 (gene 1558) = assay: LTEA_HepaRG_CYP2C8: Life Technologies and Expression Analysis (LTEA) Assay for CYP2C8 using HepaRG (AID 2283483)
Summary of the method: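 HepaRG (human liver line), 48 h chemical exposure, 8-pt half-log series from 100 uM, 0.5% DMSO vehicle. Readout: CYP2C8 transcript by qRT-PCR, housekeeping-normalized. Bidirectional fit vs DMSO baseline.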

CYP2C9 (gene 1559) = assay: LTEA_HepaRG_CYP2C9: Life Technologies and Expression Analysis (LTEA) Assay for CYP2C9 using HepaRG (AID 2283484)
Summary of the method: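 HepaRG, 48 h dosing, 8-pt half-log series, top 100 uM, 0.5% DMSO vehicle. Read-out: CYP2C9 transcript by TaqMan qRT-PCR, housekeeping-normalized (ACTB/GAPDH/POLR2A). Gain or loss fitted vs DMSO baseline.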

Measured: AC50

O=[N+]([O-])c1ccccc1[N+](=O)[O-]
active: [1] 50 µM | [4] 50 µM | [6] 6.03 µM
inactive: all other assays above
